Measurements published in US20230226034A1, “PROPHYLACTIC OR THERAPEUTIC AGENT FOR PHOTODERMATOSIS” (MITSUBISHI TANABE PHARMA CORPORATION, priority 2020, published 2023).

Amino acid sequences for entries named in this document (tags omitted). A change or cut given only in a name is not applied to a line headed by its entry.
UniProt Q01727: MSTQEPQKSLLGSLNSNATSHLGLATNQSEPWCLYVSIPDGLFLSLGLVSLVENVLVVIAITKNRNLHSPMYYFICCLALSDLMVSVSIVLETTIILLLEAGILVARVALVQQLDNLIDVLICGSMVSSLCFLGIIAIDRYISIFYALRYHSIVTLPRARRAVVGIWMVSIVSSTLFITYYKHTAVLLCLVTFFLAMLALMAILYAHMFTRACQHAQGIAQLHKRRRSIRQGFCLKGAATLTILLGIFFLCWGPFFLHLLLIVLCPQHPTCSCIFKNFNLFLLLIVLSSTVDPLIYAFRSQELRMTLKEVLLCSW

Tests used:
[1] = system: skin of healthy subjects; conditions: 150 and 300 mg orally once daily for 14 days; FIG. 2
[2] = target: mouse MC1R (Mus musculus, UniProt Q01727); conditions: read-out: EC50 (nmol/L) mMC1R; cAMP in HEK293 cells stably expressing mouse MC1R; one-half of Emax of αMSH

In the case of COC[C@H]1CN(C(=O)[C@]2(F)CN(C3CCCC3)C[C@H]2c2ccc(OC)cc2)C[C@@H]1c1ccc(C(F)(F)F)cc1N1CCC(C(=O)O)CC1 [Compound A, Cocrystal of 1-{2-[(3S,4R)-1-{[(3R,4R)-1-cyclopentyl-3-fluoro-4-(4-methoxyphenyl)pyrrolidin-3-yl]carbonyl}-4-(methoxymethyl)pyrrolidin-3-yl]-5-(trifluoromethyl)phenyl}piperidine-4-carboxylic acid with phosphoric acid], the “increase in melanin density of the skin: duration” value [1] is reported as “kept until day 29” and the EC50 [2] is reported as 1.14 nmol/L.
